CycPeptMPDB entries from one study

Collected by the curators of CycPeptMPDB (Li et al. 2023) from White et al. 2011, doi:10.1038/nchembio.664.

RRCK values come from monolayers of low-efflux MDCK cells. Permeability is given as log10 of P in cm/s; higher (less negative) is more permeable.

For CC(C)C[C@@H]1NC(=O)[C@H](CC(C)C)N(C)C(=O)[C@@H](CC(C)C)N(C)C(=O)[C@H](CO)NC(=O)[C@H](Cc2ccc(O)cc2)N(C)C(=O)[C@H]2CCCN2C1=O the data give RRCK -5.72 (log10 cm/s).
For CC(C)C[C@@H]1NC(=O)[C@H](Cc2ccc(O)cc2)N(C)C(=O)[C@H]2CCCN2C(=O)[C@H](CO)NC(=O)[C@H](CC(C)C)N(C)C(=O)[C@@H](CC(C)C)N(C)C1=O the data give RRCK -6.12 (log10 cm/s).

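Conditions beyond the assay type are not listed; see the original paper. The list need not hold all peptides of the study. Peptides that the database sets to -10, its floor, are left out.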